Experimental data from PMC6559944 (Journal of medicinal chemistry, 2019).

Key:
[1] = mice, 25 mg/kg PO, feces collected 24 h
[2] = test system: Nluc-expressing C. parvum; conditions: for Efficacy (reduction in oocyst shedding / infection), in words / Efficacy in words: IFN-γ KO mice; for Efficacy (reduction in oocyst shedding / infection), in words: oral, 5 days, doses of Table 3

| Structure (SMILES) | Fecal concentration from 25 mg/kg dose [1] [µM] | Efficacy (reduction in oocyst shedding / infection), in words [2] | Efficacy in words ([2]; 8 mg/kg QD for 5 days) | Efficacy in words ([2]; 15 mg/kg QD for 5 days) | Efficacy in words ([2]; 30 mg/kg QD for 5 days) | Efficacy in words ([2]; 60 mg/kg QD for 5 days) | Liabilities: toxicity during efficacy study ([2]; IFN-γ KO mice efficacy study) |
| --- | --- | --- | --- | --- | --- | --- | --- |
| CC(C)(CO)Cn1nc(-c2ccc3nc(OC4CC4)ccc3c2)c(C(N)=O)c1N [Compound 5, 5-amino-3-(2-cyclopropoxyquinolin-6-yl)-1-(3-hydroxy-2,2-dimethylpropyl)-1H-pyrazole-4-carboxamide] | 41 | significant reduction in oocyst shedding |  |  |  |  |  |
| CC(C)(CO)Cn1nc(-c2ccc3cc(OC4CC4)ccc3c2)c(C(N)=O)c1N [Compound 6, 5-amino-3-(6-cyclopropoxynaphthalen-2-yl)-1-(3-hydroxy-2,2-dimethylpropyl)-1H-pyrazole-4-carboxamide] |  | significant reduction in oocyst shedding | efficacious | efficacious | efficacious | efficacious |  |
| CC(C)(CO)n1nc(-c2ccc3nc(OC4CC4)ccc3c2)c(C(N)=O)c1N [Compound 23, 5-amino-3-(2-cyclopropoxyquinolin-6-yl)-1-(1-hydroxy-2-methylpropan-2-yl)-1H-pyrazole-4-carboxamide] |  | significant reduction in oocyst shedding |  |  |  |  | Signs of toxicity during efficacy |
| C#CCOc1ccc2cc(-c3nn(C(C)(C)C)c(N)c3C(N)=O)ccc2c1 [Compound 26, 5-amino-1-(tert-butyl)-3-(6-(prop-2-yn-1-yloxy)naphthalen-2-yl)-1H-pyrazole-4-carboxamide] |  | Failed efficacy |  |  |  |  |  |

Like-named read-outs stand apart in the source and are kept apart here.
